{
  "source": "patent US10329354B2",
  "about": "“Modulation of efferocytosis pathways for treatment of atherosclerotic disease” (The Board of Trustees of the Leland Stanford Junior …, priority 2013, dated 2019)",
  "origin": "cited, not measured here",
  "molecular_target": "CD47 (Homo sapiens, UniProt Q08722)",
  "conditions": "cited from earlier work",
  "data": [
    {"substance": "Hu5F9-G4: humanized anti-CD47 mAb engineered by CDR grafting of mouse sequences into a human IgG4 framework", "values": [
      {"measurement": "binding to CD47", "result": "highly selective and highly efficient binding"}
    ]}
  ]
}
